The values below come from ChEMBL document CHEMBL6074718, “Discovery and biological evaluation of potent 2-trifluoromethyl acrylamide warhead-containing inhibitors of protein disulfide isomerase” (Eur J Med Chem, 2025).

A short description of test [1]: Selectivity ratio of IC50 for inhibition of recombinant PDIA3 (unknown origin) to IC50 for inhibition of recombinant PDI (unknown origin).
The nature of test [2]: Selectivity ratio of IC50 for inhibition of recombinant PDIA6 (unknown origin) to IC50 for inhibition of recombinant PDI (unknown origin).
The subject of test [3] is Platelet. Briefly: Antiplatelet aggregation activity in human Platelet assessed as inhibition of U46619- induced aggregation preincubated for 3 mins followed by U46619 addition by turbidimetric aggregometry. Format: functional, cell-based.
Test [4] has as its system Platelet. Briefly: Antiplatelet aggregation activity in human Platelet assessed as inhibition of collagen- induced aggregation preincubated for 3 mins followed by collagen addition by turbidimetric aggregometry. Format: functional, cell-based.
Test [5] concerns Platelet. In words: Antiplatelet aggregation activity in human Platelet assessed as inhibition of thrombin- induced aggregation preincubated for 3 mins followed by thrombin addition by turbidimetric aggregometry. Format: functional, cell-based.

On to `C=C(C(=O)Nc1ccc(C(=O)c2ccccc2)cc1)C(F)(F)F`, for which the values for the Ratio IC50 in test [1] and in test [2] were 3.2 and 14.8, respectively. The Activity entry in the test with Platelet [3], in the test on Platelet [4] and in the test with Platelet [5] was “Dose-dependent-effect” each time.
